Protein sequences, listed by entry. Tags and fused reporters are not part of them. Lines headed by an entry give the natural chain unless they say otherwise; changes in a name come on top.
UniProt P35372, whole entry: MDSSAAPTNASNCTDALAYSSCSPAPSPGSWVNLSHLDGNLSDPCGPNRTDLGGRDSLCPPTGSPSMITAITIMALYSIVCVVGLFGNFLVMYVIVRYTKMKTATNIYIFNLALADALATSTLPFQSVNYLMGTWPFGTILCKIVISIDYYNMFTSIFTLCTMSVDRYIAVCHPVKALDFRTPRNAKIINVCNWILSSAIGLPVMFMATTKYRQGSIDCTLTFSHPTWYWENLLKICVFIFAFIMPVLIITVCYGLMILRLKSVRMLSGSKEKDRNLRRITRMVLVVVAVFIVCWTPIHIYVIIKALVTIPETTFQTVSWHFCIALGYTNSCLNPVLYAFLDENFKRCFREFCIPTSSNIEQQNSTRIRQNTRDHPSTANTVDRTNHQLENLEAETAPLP
UniProt P41145: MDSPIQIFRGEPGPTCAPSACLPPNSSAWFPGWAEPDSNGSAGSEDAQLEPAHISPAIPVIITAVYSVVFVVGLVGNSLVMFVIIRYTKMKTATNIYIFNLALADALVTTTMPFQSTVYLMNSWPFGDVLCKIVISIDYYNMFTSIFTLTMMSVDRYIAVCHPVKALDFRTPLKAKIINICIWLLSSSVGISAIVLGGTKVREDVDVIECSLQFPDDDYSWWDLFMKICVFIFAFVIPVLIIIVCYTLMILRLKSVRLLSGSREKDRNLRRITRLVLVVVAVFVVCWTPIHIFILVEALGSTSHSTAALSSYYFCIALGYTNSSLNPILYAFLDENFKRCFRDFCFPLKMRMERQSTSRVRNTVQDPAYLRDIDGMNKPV

In ChEMBL document CHEMBL1153960, “Syntheses of novel high affinity ligands for opioid receptors” (Bioorg Med Chem Lett, 2009):

Assays:
Assay in all cases: biochemical
[1] = molecular target: T1, Mu-type opioid receptor (Homo sapiens, UniProt P35372)
[2] = molecular target: T1, Mu-type opioid receptor; remark: listed apart in the source
[3] = molecular target: T1, Mu-type opioid receptor; remark: listed apart in the source
[4] = molecular target: Kappa-type opioid receptor (Homo sapiens, UniProt P41145)

SMILES	IC50 [1]	EC50 [2]	Ki [3]	Ki [4]
NC(=O)c1ccc2c(c1O)[C@@]13CCCC[C@@]1(O)[C@@H](C2)N(CC1CC1)CC3	3.8 nM	10 nM	0.16 nM	
Oc1ccc2c3c1O[C@H]1c4[nH]c5ccccc5c4C[C@@]4(O)[C@@H](C2)N(CC2CC2)CC[C@]314 [NALTRINDOLE]			5.3 nM	2.9 nM
